# Source: BindingDB's records for doi:10.1021/jm00384a001 (1987)
# Assay: Evaluated for the binding affinity to porcine choroid plexus at 5-hydroxytryptamine 2C receptor binding site by using [3H]-MES as a radioligand.
smiles,measurement,value
CN1C[C@@H](NS(=O)(=O)N(C)C)C[C@@H]2c3cccc4c3c(cn4C)C[C@H]21 [MESULERGINE],Ki,1.5 nM
